This is a selection; strong and weak results do not stand in their true shares. Active and inactive are the calls of the source.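 The calls were made as follows: active = calcium response B-score plate-corrected fluorescence ratio at least 3 library SD, with starting fluorescence B-score inside 5 SD; inactive = the rest.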
These compounds were tested against Mas-related G-protein coupled receptor member X1 (Homo sapiens) (UniProt Q96LB2) (assay: agonists of human MrgX1 receptor, primary screen, HEK293 cells, Fluo-4 calcium flux (AID 588627;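 as to B-score: B-score of the peak-minus-trough calcium fluorescence change over baseline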)). Settings: Fluo-4 calcium fluorescence, agonist mode, at 10 µM; stronger effect = higher value.
In short: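 Material: MrgX1-expressing HEK293 cells / Dosing: compound as first of three additions / Incubation: overnight seeding, then 1 h dark dye loading / Signal: Fluo-4 NW calcium fluorescence / Evaluation: B-scored fluorescence response ratio / Benchmarks: positive and negative control wells on each plate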

By UniProt entry, the sequences of proteins in these tests, tags left out.
UniProt Q96LB2, whole entry: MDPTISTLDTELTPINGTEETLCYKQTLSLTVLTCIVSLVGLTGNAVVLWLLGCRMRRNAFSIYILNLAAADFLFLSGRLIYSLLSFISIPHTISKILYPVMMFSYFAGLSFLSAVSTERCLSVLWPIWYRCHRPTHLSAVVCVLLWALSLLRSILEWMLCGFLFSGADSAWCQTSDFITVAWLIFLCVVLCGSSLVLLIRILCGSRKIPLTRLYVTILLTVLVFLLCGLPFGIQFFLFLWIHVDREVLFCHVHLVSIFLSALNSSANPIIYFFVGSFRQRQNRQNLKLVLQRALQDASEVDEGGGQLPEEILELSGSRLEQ

Compound | outcome | B-score
CC(=O)Nc1ccc([As](=O)(O)O)c(O)c1 | inactive | –
COc1ccccc1OP(C)(=O)Nc1cccc(Br)c1 (stereo unspecified) | inactive | –
CS(=O)(=O)c1ccc(Cl)c(NC(=O)COC(=O)C(O)(c2ccccc2)c2ccccc2)c1 | inactive | –
COc1cc(C(=O)NCC2(N3CCOCC3)CCCCC2)cc(Cl)c1OC(C)C | inactive | –
O=[As](O)(O)c1cccnc1 | inactive | –
O=C(OC1CN2CCC1CC2)c1ccc(Cl)cc1 (stereo unspecified) | inactive | –
CCOC(=O)c1ccc(NP(C)(=O)Oc2cc(C)cc(C)c2)cc1 (stereo unspecified) | inactive | –
Cc1cc(C)cc(OP(C)(=O)Nc2ccc(C)cc2C)c1 (stereo unspecified) | inactive | –
O=[As](O)(c1cccc(O)c1)c1cccc(O)c1 | inactive | –
Cc1cccc(OCC(=O)OC2CN3CCC2CC3)c1 (stereo unspecified) | inactive | –
CCCOP(=S)(Nc1nc(N)cc(=O)[nH]1)OCCC | inactive | –
Cc1ccc(C)c(NP(C)(=O)Oc2ccccc2)c1 (stereo unspecified) | inactive | –
Cc1ccc(NCCc2c([N+](=O)[O-])cc([N+](=O)[O-])cc2[N+](=O)[O-])cc1 | inactive | –
Nc1cccc2c([As](=O)(O)O)cccc12 | inactive | –
CP(=O)(Nc1cccc(Br)c1)Oc1ccccc1 (stereo unspecified) | inactive | –
Cc1cc(C)cc(OP(C)(=O)Nc2ccccn2)c1 (stereo unspecified) | inactive | –
CCOP(=O)(Nc1cccc2ccccc12)OCC | inactive | –
CS(=O)(=O)c1cc([N+](=O)[O-])c2no[n+]([O-])c2c1 | inactive | –
O=P(Nc1nccs1)(c1ccccc1)c1nc2ccccc2s1 (stereo unspecified) | inactive | –
O=P(Nc1nccs1)(Oc1ccccc1)Oc1ccccc1 | inactive | –
CCOP1(=S)c2c(C)nn(CCC#N)c2N=C(c2ccccc2F)N1C (stereo unspecified) | inactive | –
O=C(O)c1cccc(Nc2c([N+](=O)[O-])cc([N+](=O)[O-])cc2[N+](=O)[O-])c1 | inactive | –
Nc1ccccc1[As](=O)(O)c1ccccc1 | inactive | –
O=C(O)COc1ccc([As](=O)(O)O)cc1[N+](=O)[O-] | inactive | –

Compound | outcome | B-score
NC(=O)Nc1ccc([As](=O)(O)O)cc1 | inactive | –
CN(C(=O)Cc1ccc(Cl)c(Cl)c1)[C@H]1CC[C@@]2(CCCO2)C[C@@H]1N1CCCC1 | inactive | –
CC1=NCCc2c1[nH]c1ccccc21.O=[N+]([O-])c1cc([N+](=O)[O-])c(O)c([N+](=O)[O-])c1 | inactive | –
CN(C)C(=O)c1cc([N+](=O)[O-])cc2c1-c1c(cc([N+](=O)[O-])cc1[N+](=O)[O-])C2=O | inactive | –
O=[N+]([O-])c1ccc2c(c1)nnn2O | inactive | –
CCOP1(=S)c2c(C)nn(CCC#N)c2N=C(c2ccc(F)cc2)N1C (stereo unspecified) | inactive | –
CN(C(=O)Cc1ccccc1)[C@@H]1CC[C@]2(CCCO2)C[C@H]1N1CCCC1 | inactive | –
N#CCCN(C(=O)COC(=O)C(O)(c1ccccc1)c1ccccc1)c1ccc(F)cc1 | inactive | –
COc1cc(C2NCCC3(OCCO3)C2(C)C)cc(OC)c1OC.O=[N+]([O-])c1cc([N+](=O)[O-])c(O)c([N+](=O)[O-])c1 (stereo unspecified) | inactive | –
CC1CCC(C(C)C)C(OP(=O)(Nc2ccccn2)c2ccccc2)C1 (stereo unspecified) | inactive | –
Cc1ccc(C(=O)OC2CN3CCC2CC3)cc1 (stereo unspecified) | inactive | –
Cc1nn(-c2ccccc2)c2c1P(=O)(N1CCOCC1)N(C)C(c1ccccc1)=N2 (stereo unspecified) | inactive | –
O=C(/C=C/c1ccccc1)OC1CN2CCC1CC2 (stereo unspecified) | inactive | –
CCOC(=O)C(CC)C1=NC(C)(C)Cc2ccccc21.O=[N+]([O-])c1cc([N+](=O)[O-])c(O)c([N+](=O)[O-])c1 (stereo unspecified) | inactive | –
O=[N+]([O-])c1cc([N+](=O)[O-])c(Nc2nnnn2CCO)c([N+](=O)[O-])c1 | inactive | –
CN(C)C1(CNC(=O)c2ccc(S(C)(=O)=O)cc2)CCCCC1 | inactive | –
CC1=C2N=C(C=C3N=C(C(C)=C4[N-][C@@](C)([C@@H]5N=C1[C@](C)(CCC(=O)NC[C@@H](C)OP(=O)([O-])O[C@H]1[C@@H](O)[C@@H](n6cnc7cc(C)c(C)cc76)O[C@@H]1CO)[C@H]5CC(N)=O)[C@@](C)(CC(N)=O)[C@@H]4CCC(N)=O)[C@@](C)(CC(N)=O)[C@@H]3CCC(N)=O)C(C)(C)[C@@H]2CCC(N)=O.[C-]#N.[Co+3] | inactive | –
O=P1(Nc2ncccn2)COc2ccccc2OC1 | inactive | –
COc1ccccc1OP(C)(=O)Nc1c(C)cccc1C (stereo unspecified) | inactive | –
CN1CCCCC1COC(=O)C1(O)c2ccccc2CCc2ccccc21 (stereo unspecified) | inactive | –
O=P1(Nc2ccc(Br)cn2)COc2ccccc2OC1 | inactive | –
Cc1ccc(OCC(=O)OC2CN3CCC2CC3)cc1 (stereo unspecified) | inactive | –
O=[As](O)(c1cccs1)c1cccs1 | inactive | –
Nc1cccc([As](=O)(O)c2ccccc2)c1 | inactive | –

Compound | outcome | B-score
CP(=O)(Nc1ccc(SC(F)(F)F)cc1)Oc1ccccc1 (stereo unspecified) | inactive | –
CCCOc1ccc(NP(C)(=O)Oc2ccc(Cl)cc2)cc1 (stereo unspecified) | inactive | –
CN(CCCl)Cc1cc(Cl)c(NC2=NCCN2)c(Cl)c1 | inactive | –
CCOP(=O)(Nc1ccc(C)cn1)OCC | inactive | –
CCOP(=O)(NC(=NC(C)c1ccccc1)NC(C)c1ccccc1)OCC (stereo unspecified) | inactive | –
O=[N+]([O-])c1cc([N+](=O)[O-])c(-n2nnc3ccccc32)c([N+](=O)[O-])c1 | inactive | –
O=P1(Nc2ccccn2)COc2ccccc2OC1 | inactive | –
CCC1=CC2Cc3nc4ccc(Cl)cc4c(N)c3C(C1)C2 (stereo unspecified) | inactive | –
CC(C)(C)C(=O)NC(Sc1ncccn1)C(Cl)(Cl)Cl (stereo unspecified) | inactive | –
Clc1n[nH]nc1-c1nn[nH][15n]1 | inactive | –
COc1ccccc1CNC(=O)COC(=O)C(O)(c1ccccc1)c1ccccc1 | inactive | –
O=[N+]([O-])c1cc([N+](=O)[O-])c(-c2cnn(-c3ccccc3)c2)c([N+](=O)[O-])c1 | inactive | –
CC1(CBr)Cn2c(nc3ccccc3c2=O)S1 (stereo unspecified) | inactive | –
Cc1nc2ccc3ccccc3c2s1.O=[N+]([O-])c1cc([N+](=O)[O-])c(O)c([N+](=O)[O-])c1 | inactive | –
O=[As](O)(c1ccccc1Br)c1ccccc1Br | inactive | –
CC(C)/C=N\N=C(\N)N[N+](=O)[O-] | inactive | –
CN(C(=O)Cc1ccc(Cl)c(Cl)c1)[C@@H]1CCCC[C@H]1N1CCCC1 | inactive | –
CP(=O)(Oc1ccccc1)OC(c1ccccc1)C(F)(F)F (stereo unspecified) | inactive | –
Cc1cccc(C)c1OP(C)(=O)Nc1ccc(SC(F)(F)F)cc1 (stereo unspecified) | inactive | –
CP(=O)(Nc1ccc(SC(F)(F)F)cc1)Oc1ccc(Cl)cc1 (stereo unspecified) | inactive | –
COP1(=S)c2c(C)nn(CCC#N)c2N=C(c2ccc(F)cc2)N1C (stereo unspecified) | inactive | –
Cc1cc(C)cc(OP(C)(=O)Nc2ccc(SC(F)(F)F)cc2)c1 (stereo unspecified) | inactive | –
O=C(Nc1ccncc1[N+](=O)[O-])c1ccc([N+](=O)[O-])cc1[N+](=O)[O-] | inactive | –
CCc1ccc(OP(C)(=O)N2CCN(c3ccc([N+](=O)[O-])cc3)CC2)cc1 (stereo unspecified) | inactive | –

Compound | outcome | B-score
O=C(COc1ccccc1)OC1CN2CCC1CC2 (stereo unspecified) | inactive | –
CP(=O)(NC(=O)Nc1ccccc1)Oc1ccccc1 (stereo unspecified) | inactive | –
CCOC(=O)c1ccc(NP(C)(=O)Oc2ccc(OC)cc2)cc1 (stereo unspecified) | inactive | –
CCOC(=O)c1ccc(NC(=O)C(C)(CCl)SC)cc1 (stereo unspecified) | inactive | –
O=[N+]([O-])c1cc([N+](=O)[O-])c(O)c([N+](=O)[O-])c1.c1ccc(Oc2ccncc2)cc1 | inactive | –
CCOP(C)(=S)SCC(=O)NC(C)C(=O)O (stereo unspecified) | inactive | –
O=C(OC1CN2CCC1CC2)c1cccc([N+](=O)[O-])c1 (stereo unspecified) | inactive | –
CP(=O)(Nc1ccccn1)Oc1ccc(Cl)cc1 (stereo unspecified) | inactive | –
CCC(C)N(CC(C)C)C(=S)SC(NC(C)=O)C(Cl)(Cl)Cl (stereo unspecified) | inactive | –
CCOC(=O)Nc1ccc([As](=O)(O)O)c(O)c1 | inactive | –
Cc1cc(SC(NC(=O)c2ccccc2)C(Cl)(Cl)Cl)nc(C(C)C)n1 (stereo unspecified) | inactive | –
CCOC(=O)Nc1cccc([As](=O)(O)O)c1 | inactive | –
CP(=S)(Nn1cnnc1)Oc1ccccc1 (stereo unspecified) | inactive | –
O=[N+]([O-])c1ccc(Nc2ccc(Oc3ccc([N+](=O)[O-])cc3[N+](=O)[O-])cc2)c([N+](=O)[O-])c1 | inactive | –
CP(=O)(Nc1ccccc1Br)Oc1ccccc1 (stereo unspecified) | inactive | –
COc1ccccc1OP(C)(=O)Nc1ccccc1 (stereo unspecified) | inactive | –
O=P(Nc1ccccn1)(c1cccc2ccccc12)c1cccc2ccccc12 | inactive | –
Cc1cc(SC(NC=O)C(Cl)(Cl)Cl)ncn1 (stereo unspecified) | inactive | –
O=[As](O)(c1ccc(O)cc1)c1ccccc1O | inactive | –
C[As](=O)(O)c1cccc(C(=O)O)c1 | inactive | –
O=[N+]([O-])c1cc([N+](=O)[O-])c(Nc2cccnc2)c([N+](=O)[O-])c1 | inactive | –
Cc1ccc2nc3c(c(C)c2c1)CC(C(Cl)Cl)S3 (stereo unspecified) | inactive | –
O=[N+]([O-])c1ccc2c(c1)C=Nc1ccccc1O2 | – | active: 34.6
Cc1cccc(C)c1OP(C)(N)=O (stereo unspecified) | inactive | –

Compound | outcome | B-score
CC(C)(C)c1ccc(OP(C)(=O)Nc2ccc(SC(F)(F)F)cc2)cc1 (stereo unspecified) | inactive | –
Cc1ccc(OP(=O)(Nc2ccc([N+](=O)[O-])cn2)Oc2ccc(C)cc2)cc1 | inactive | –
Cc1ccc(NP(C)(=O)Oc2ccccc2)c(C)c1 (stereo unspecified) | inactive | –
CC(C)c1ccc(OP(=O)(Nc2ccccn2)Oc2ccccc2F)cc1 (stereo unspecified) | inactive | –
COc1ccccc1OP(C)(=O)Nc1ccc(C)cc1 (stereo unspecified) | inactive | –
ClCCSc1nnc(-c2cccnc2)o1 | inactive | –
CCOC(=O)c1ccc(NP(C)(=O)Oc2ccccc2)cc1 (stereo unspecified) | inactive | –
Cc1cc(C)cc(OP(C)(N)=O)c1 (stereo unspecified) | inactive | –
O=[N+]([O-])c1cc([N+](=O)[O-])c(-c2ccn[nH]2)s1 | inactive | –
COc1ccc(OP(C)(=O)Nc2cccc(F)c2)cc1 (stereo unspecified) | inactive | –
CCN(CC)C(=S)SC(NC=O)C(Cl)(Cl)Cl (stereo unspecified) | inactive | –
COc1ccccc1OP(C)(=O)Nc1cc(Cl)ccc1C (stereo unspecified) | inactive | –
CC(C)NC(=O)NP(=O)(Oc1ccccc1)Oc1ccccc1 | inactive | –
Cc1cc(=O)[nH]c(N[N+](=O)[O-])n1 | inactive | –
CCN(CC)CCCOC(=O)C(O)(c1ccccc1)c1ccccc1 | inactive | –
O=C(OC1CN2CCC1CC2)C12CC3CC(CC(C3)C1)C2 (stereo unspecified) | inactive | –
Cc1c2c(nc3ccccc13)SC(C(Cl)Cl)C2 (stereo unspecified) | inactive | –
COc1cc(I)ccc1[As](=O)(O)O | inactive | –
COc1ccc2nc(NP(=O)(c3ccccc3)c3ccccc3)sc2c1 | inactive | –
COc1ccc(N/C(=N/P(=O)(N2CCOCC2)N2CCOCC2)N2CCOCC2)cc1 | inactive | –

Reference: PubChem BioAssay AID588627 (Johns Hopkins Ion Channel Center, 2011)
